Experimental data reported in patent US20240131180A1, “DRUG ANTIBODY CONJUGATES” (PHARMA MAR, S.A., priority 2020, published 2024).

Legend:
HCC-1954 = experiment: SRB cytotoxicity assay, HCC-1954 (HER2+); type: cell-based, human; conditions: HER2 positive; 72 hours; geometric mean of three independent experiments
[1] = test system: SK-BR-3, HCC-1954, MDA-MB-231 and MCF-7 cells; type: cell-based; conditions: 50 to 0.01 g/mL as printed; any cell line, independently of HER2 status
Source text: (§1) Sulforhodamine B colorimetric assay for cytotoxicity screening. Nature Protocols, 2006, 1, 1112-1116.
(§2) Cell survival was expressed as percentage of control, untreated cell survival.

MDA-MB-231 = experiment: SRB cytotoxicity assay, MDA-MB-231 (HER2-); type: cell-based, human; conditions: HER2 negative; 72 hours; geometric mean of three independent experiments
Source text: as §1, §2

MCF-7 = experiment: SRB cytotoxicity assay, MCF-7 (HER2-); type: cell-based, human; conditions: HER2 negative; 72 hours; geometric mean of three independent experiments
Source text: as §1, §2

SK-BR-3 = experiment: SRB cytotoxicity assay, SK-BR-3 (HER2+); type: cell-based, human; conditions: HER2 positive; 72 hours; geometric mean of three independent experiments
Source text: as §1, §2

## Trastuzumab: monoclonal antibody that interferes with the HER2/neu receptor; purchased from Roche
HCC-1954
  IC50: > 340 nM
  IC50 HCC-1954: >50 µg/mL
[1]
  in vitro cytotoxicity: completely inactive
MDA-MB-231
  IC50: > 340 nM
  IC50 MDA-MB-231: >50 µg/mL
MCF-7
  IC50: > 340 nM
  IC50 MCF-7: >50 µg/mL
SK-BR-3
  IC50: > 340 nM
  IC50 SK-BR-3: >50 µg/mL
